## scFv variants of Ab-14 (heavy chain) against a SARS-CoV-2 spike peptide

Data: MIT Lincoln Laboratory AlphaSeq set, Engelhart et al. 2022, doi:10.1038/s41597-022-01779-4, as distributed in FLAb.

Target peptide (SARS-CoV-2 spike, HR2 region): PDVDLGDISGINAS

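The starting antibody came from a phage panning campaign against this peptide. Variants in AAYL49 differ from the parent at up to three CDR positions; double and triple changes were sampled at random. The assay is AlphaSeq: two haploid yeast populations carry antibody and antigen on their surface. After mating in shaken culture at 30 °C for 16 h, diploids were selected and their barcode pairs sequenced. The ratio of observed to expected reads was calibrated, replicate by replicate, on BCL2-family standards whose Kd was known from biolayer interferometry. Each pool was mated in three replicate cultures.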

Each scFv is VH, a (GGGGS)3 linker, VL, as in the parent Ab-14, and differs from it in the CDRs of the heavy chain only.
VH: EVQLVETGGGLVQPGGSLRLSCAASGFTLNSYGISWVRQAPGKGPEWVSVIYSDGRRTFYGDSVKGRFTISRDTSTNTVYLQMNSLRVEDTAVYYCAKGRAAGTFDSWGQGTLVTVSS
VL: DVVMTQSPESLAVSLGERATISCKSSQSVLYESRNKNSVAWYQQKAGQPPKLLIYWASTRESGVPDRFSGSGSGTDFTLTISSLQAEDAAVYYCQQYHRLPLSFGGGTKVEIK

The parent's heavy chain CDRs are GFTLNSYGIS, VIYSDGRRTFYGDSVK, GRAAGTFDS; each variant's own CDRs replace them letter for letter. Affinities are written as log10 Kd with Kd in nM; a lower number is a better binder. Where no diploid with the target was found in that replicate, the entry reads "nd": below detection, most likely a poor binder, though not proof of it.

CDR-H1 | CDR-H2 | CDR-H3 | log10 Kd (nM) by replicate | empty controls
GFTLNSYAIS | VIYSDGRRTFYGDSVH | GRYAGTFDS | 3.29 / nd / nd | 0/9
GHTLNSYGIS | VIYSDGNRTFYGDSVK | GRAAGTSDS | nd / nd / nd | 0/9
GPTLNSYGIF | VIYSDGRRTFPGDSVK | GRAAGTFDS | nd / nd / nd | 0/9
GFTLNSYGIS | VIPSDQRRTGYGDSVK | GRAAGTFDS | 3.79 / nd / nd | 2/9 (2.97)
GFTLNSYGIS | VIYSDGNRTFYGDSVK | DRAAGTFDS | nd / 4.89 / 3.30 | 1/9 (4.72)
GFTWNSYGIS | QIYSDGRRTFYGDSVK | GRVAGTFDS | nd / nd / nd | 2/9 (4.66)
GGTLNSYGIS | VIYSDGRRTMYGDSVP | GRAAGTFDS | nd / nd / nd | 2/9 (3.67)
GFTLNSYGIS | VISSDGRRTFYGDSVK | GRAAGTFDS | nd / 3.64 / nd | 2/9 (3.94)
GFTLISYGIN | VIYSDGRRTFYGDSVS | GRAAGTFDS | nd / nd / 5.63 | 8/9 (4.80)
GFTLNSYGIS | VIYSDGRRTGYGDEVK | GRAYGTFDS | 1.81 / 1.81 / 1.99 | 0/9
GLTLNSYGIS | VIYSDGRKTFYGDSVK | GRAAWTFDS | nd / nd / nd | 0/9
GFTLNSYGIS | VIYSYGRRTCYGDSVK | GRAAGTFDS | nd / nd / nd | 0/9
GFTLNSYGIS | VIYSDGRRTFYGDSVK | GRAAGSWDS | nd / 3.13 / 2.70 | 0/9
VFTLNSYGID | VIYSGGRRTFYGDSVK | GRAAGTFDS | nd / nd / nd | 1/9 (4.14)
GFTLNSYGIS | VIYSDGRRTFYGDSVK | GDPWGTFDS | nd / nd / nd | 2/9 (4.28)
GFTLNSYGIT | VIYSDGRRTFYGDSVI | GRAAGCFDS | nd / nd / nd | 0/9
GFMLNSYGIS | VIYSDGRRTFYGDSVK | GIAAGTHDS | 4.81 / nd / nd | 4/9 (4.08)
TFTLNSYGIS | VIYSDGRRTFYGDSVK | GELAGTFDS | 1.14 / 1.16 / 1.18 | 1/9 (3.28)
GVTLNSYGIS | VIYSDGARTFYGDSVK | GRAAGHFDS | nd / nd / 3.87 | 4/9 (3.76)
GFTLNLYGIS | VIYSDGRRTFYGDSVK | GRAAGFFDS | nd / 4.28 / nd | 2/9 (4.33)
GFTLNSYGQS | VIYRDGRRTFYGDSNK | GRAAGTFDS | nd / nd / nd | 0/9
GFTLNSYGIS | VIYSDGRTEFYGDSVK | CRAAGTFDS | nd / nd / 2.64 | 2/9 (4.61)
PFTLNSAGIS | VIYSDGRRTFYGDSVK | GRAAGYFDS | 6.43 / 4.31 / nd | 7/9 (4.41)
GFTLNSYGIS | VIYSPGRRTFYGDSVK | GRQAGTFDS | nd / nd / nd | 3/9 (3.56)
GYTLNSYGIS | VIYSDLIRTFYGDSVK | GRAAGTFDS | nd / nd / nd | 0/9
GFTLNSYGIS | VDYSDGRRTFYGSSVK | GRMAGTFDS | nd / nd / nd | 0/9
RMTLNSYGIS | VIYSDGRGTFYGDSVK | GRAAGTFDS | nd / nd / nd | 2/9 (4.76)
GFTLSSYGIQ | VIYSDGRRTFYGDSVK | GIAAGTFDS | nd / nd / nd | 1/9 (4.77)
INTLNSYGIS | VIYSDGRRTFYGDSVK | GRAAGTFDS | 2.08 / 1.60 / 2.22 | 4/9 (3.45)
GFTLNSYGFS | VIYSDGARTFTGDSVK | GRAAGTFDS | nd / nd / nd | 1/9 (3.43)
GFTLNSYGIS | CIYSDGRRTFYEDSVK | GRAAGTFDS | nd / nd / nd | 0/9
GFTLNSYLIS | VIYSDGRRTPYGDSVK | GEAAGTFDS | nd / nd / nd | 1/9 (4.76)
GHTLNSYPIS | VIHSDGRRTFYGDSVK | GRAAGTFDS | 4.58 / nd / 4.20 | 4/9 (4.01)
GFTRNSYPIS | VIYSDGRRTFYGDSVK | GRNAGTFDS | nd / nd / nd | 0/9
GFTLPSYGIS | VIYSDGRRTFYGDSVK | GRRAGDFDS | 4.61 / nd / 5.12 | 1/9 (4.49)
GFTANSYGIS | VIYSDGRRTFYGDSVK | GRAFGTIDS | nd / nd / nd | 1/9 (4.00)
GFTANSYGIS | VIYSDGRTTFYGMSVK | GRAAGTFDS | nd / nd / nd | 2/9 (4.48)
GFTLNSYGIS | VIYSDGRRTFEADSVK | GRAAVTFDS | nd / nd / nd | 0/9
GHTRNSYGIS | VIYSDGRRTRYGDSVK | GRAAGTFDS | nd / nd / nd | 0/9
GFMLNSYGIS | VIYSDGDRTFYGLSVK | GRAAGTFDS | nd / nd / nd | 0/9

Excerpt, the first 5 entries:

| CDR-H1 | CDR-H2 | CDR-H3 | log10 Kd (nM) by replicate | empty controls |
|---|---|---|---|---|
| GFTLNSYAIS | VIYSDGRRTFYGDSVH | GRYAGTFDS | 3.29 / nd / nd | 0/9 |
| GHTLNSYGIS | VIYSDGNRTFYGDSVK | GRAAGTSDS | nd / nd / nd | 0/9 |
| GPTLNSYGIF | VIYSDGRRTFPGDSVK | GRAAGTFDS | nd / nd / nd | 0/9 |
| GFTLNSYGIS | VIPSDQRRTGYGDSVK | GRAAGTFDS | 3.79 / nd / nd | 2/9 (2.97) |
| GFTLNSYGIS | VIYSDGNRTFYGDSVK | DRAAGTFDS | nd / 4.89 / 3.30 | 1/9 (4.72) |

Nonspecific signal, from three strains lacking the peptide, appeared in 15% of pairings of library AAYL49, centred on 4.06 (5% of these signals below 2.83); values are not corrected for it. The control count says in how many pairings with the empty strains this scFv gave a signal, with their mean in brackets. For reference, the parent read 0.65 as the reference entry and 4.11 (one replicate of three) as a member of this library.